The results in this text go back to US4137380A, “Polyester granules and process” (priority 1972, dated 1979).

The data set is described as follows: Relative water solubility of amine. The conditions noted are these: amine base.

Turning to `Nc1ccccc1N` [o-phenylene diamine], the “Rel. W. Sol” value is reported as “insoluble”.
